Apparent affinities of Ab-14 variants for a coronavirus HR2 peptide

Values reported by Engelhart et al. 2022, doi:10.1038/s41597-022-01779-4 (FLAb copy).

Antigen: PDVDLGDISGINAS, a 14-residue peptide of the SARS-CoV-2 spike HR2 region.

Parent: Ab-14, a human scFv built as VH, a 15-residue (Gly4Ser)3 linker, VL. Only the CDRs of the heavy chain vary.
VH: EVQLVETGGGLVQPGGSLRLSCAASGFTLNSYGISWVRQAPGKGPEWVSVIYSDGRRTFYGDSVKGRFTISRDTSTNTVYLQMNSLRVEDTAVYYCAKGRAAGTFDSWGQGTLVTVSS
VL: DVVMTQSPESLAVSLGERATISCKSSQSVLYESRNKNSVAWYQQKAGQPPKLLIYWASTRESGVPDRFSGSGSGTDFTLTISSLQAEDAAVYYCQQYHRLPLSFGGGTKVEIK

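Variants in AAYL49 differ from the parent at up to three CDR positions; double and triple changes were sampled at random. The assay is AlphaSeq: two haploid yeast populations carry antibody and antigen on their surface. After mating in shaken culture at 30 °C for 16 h, diploids were selected and their barcode pairs sequenced. Read counts were normalised to the haploid input and turned into Kd by a linear fit to BCL2-family pairs of known affinity, for each replicate. Each pool was mated in three replicate cultures.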

Sequences are complete VH domains. Numbers give log10(Kd / nM), so 0 is 1 nM and 3 is 1 µM. Smaller is tighter. "ND" means that the variant was in the library but no mating with the target was seen in that replicate; the authors take this as a sign of poor binding, and no number exists. Background: pairings of library AAYL49 with three empty control strains gave a value in 15% of cases (median 4.06, 5th percentile 2.83). Values in that range, when seen in few replicates, are hard to tell from nonspecific mating. Also given: how often the same scFv was detected with the empty control strains, with their mean in brackets. In this assay the parent's reference entry averaged 0.65; its copy inside this library read 4.11 (one replicate of three).

| # | VH | replicates, log10 nM | empty controls |
|---|---|---|---|
| 1 | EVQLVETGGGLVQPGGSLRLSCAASGFTLNSYGISWVRQAPGKGPEWVSVIYSPCRRTFYGDSVKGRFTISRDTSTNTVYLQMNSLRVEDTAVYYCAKGRAAGTFDGWGQGTLVTVSS | ND / ND / ND | 0/9 |
| 2 | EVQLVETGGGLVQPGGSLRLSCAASGFTLNSYGISWVRQAPGKGPEWVSHIYSDGRRIFYGDSVKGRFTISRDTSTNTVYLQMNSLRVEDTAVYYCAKGRAAGTFSSWGQGTLVTVSS | ND / ND / ND | 1/9 (3.34) |
| 3 | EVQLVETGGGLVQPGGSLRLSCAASGFTLNSYGISWVRQAPGKGPEWVSVRYSDGRRTFYGDSVKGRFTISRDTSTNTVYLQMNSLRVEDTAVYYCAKGRAAGTFDSWGQGTLVTVSS | ND / ND / ND | 0/9 |
| 4 | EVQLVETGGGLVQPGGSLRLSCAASGFTLNSYGISWVRQAPGKGPEWVSVIYSDGRRWFYGDSVKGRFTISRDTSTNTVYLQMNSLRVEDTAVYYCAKTRAADTFDSWGQGTLVTVSS | ND / 4.79 / ND | 0/9 |
| 5 | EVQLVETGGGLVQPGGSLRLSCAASGFTLDSYDISWVRQAPGKGPEWVSVIYSDGRRTFYGDTVKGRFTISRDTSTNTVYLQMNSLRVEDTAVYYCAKGRAAGTFDSWGQGTLVTVSS | ND / ND / ND | 1/9 (4.20) |
| 6 | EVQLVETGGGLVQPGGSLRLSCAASGFTLNSYGVSWVRQAPGKGPEWVSVIYSDGRRTFYGDSVKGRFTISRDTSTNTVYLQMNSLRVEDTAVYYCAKGRIAGTFDSWGQGTLVTVSS | 0.49 / 0.70 / 0.51 | 0/9 |
| 7 | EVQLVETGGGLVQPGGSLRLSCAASGFTLNSYGISWVRQAPGKGPEWVSVIYSDGRRTFYNDSVKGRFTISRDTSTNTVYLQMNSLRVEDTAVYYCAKGRAEMTFDSWGQGTLVTVSS | ND / ND / ND | 1/9 (4.43) |
| 8 | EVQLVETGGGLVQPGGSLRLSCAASGFTLNSYGISWVRQAPGKGPEWVSVIYSDGRRTFYDDSVKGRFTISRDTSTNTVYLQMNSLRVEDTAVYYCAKSRAAGTFDSWGQGTLVTVSS | ND / ND / ND | 0/9 |
| 9 | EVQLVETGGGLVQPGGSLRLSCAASGFTWNSYGISWVRQAPGKGPEWVSVIYSDGRRTFYGDSVKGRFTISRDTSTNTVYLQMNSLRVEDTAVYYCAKGRAAGTYDSWGQGTLVTVSS | ND / ND / ND | 2/9 (3.96) |
| 10 | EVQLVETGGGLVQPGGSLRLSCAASGFHLNSYGISWVRQAPGKGPEWVSVIYSDGRRTFYGDPVKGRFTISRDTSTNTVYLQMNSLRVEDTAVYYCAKGMAAGTFDSWGQGTLVTVSS | 2.91 / 1.64 / 2.15 | 0/9 |
| 11 | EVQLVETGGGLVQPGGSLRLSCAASGFTLNSYGISWVRQAPGKGPEWVSVIYDDGRRTFYGDSCKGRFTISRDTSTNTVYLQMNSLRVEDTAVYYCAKGRAAGTFDSWGQGTLVTVSS | ND / ND / ND | 0/9 |
| 12 | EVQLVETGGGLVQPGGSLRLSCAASGFTLNVYGISWVRQAPGKGPEWVSVIYSRGRRTYYGDSVKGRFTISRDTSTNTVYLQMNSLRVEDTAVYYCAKGRAAGTFDSWGQGTLVTVSS | ND / ND / ND | 0/9 |
| 13 | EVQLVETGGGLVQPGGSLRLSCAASGFTLNSYGISWVRQAPGKGPEWVSVIYSDGRRWFYGDSVKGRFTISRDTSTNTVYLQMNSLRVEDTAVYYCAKSRAAGTFDEWGQGTLVTVSS | 5.94 / ND / ND | 1/9 (2.90) |
| 14 | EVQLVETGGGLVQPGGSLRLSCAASGFTLNSYGISWVRQAPGKGPEWVSVIYSDHWRTFYGDSVKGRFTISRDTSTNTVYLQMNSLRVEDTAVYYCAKSRAAGTFDSWGQGTLVTVSS | 3.97 / ND / ND | 3/9 (3.76) |
| 15 | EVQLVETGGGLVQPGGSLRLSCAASGFHLDSYGISWVRQAPGKGPEWVSVIYSDGRRTFYGDSQKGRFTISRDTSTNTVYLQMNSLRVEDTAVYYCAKGRAAGTFDSWGQGTLVTVSS | 4.25 / ND / ND | 2/9 (4.11) |
| 16 | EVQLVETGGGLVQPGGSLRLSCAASGFTLNSYGISWVRQAPGKGPEWVSVVYSDGRRTFYGRSVKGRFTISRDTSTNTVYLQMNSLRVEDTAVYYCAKGHAAGTFDSWGQGTLVTVSS | ND / 4.14 / ND | 3/9 (4.34) |
| 17 | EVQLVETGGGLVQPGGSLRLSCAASGFGLNSYGISWVRQAPGKGPEWVSVIYSDGRRTFYGDSVKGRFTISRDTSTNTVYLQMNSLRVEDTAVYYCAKGRAAGTFDTWGQGTLVTVSS | 0.31 / 0.57 / 0.48 | 0/9 |
| 18 | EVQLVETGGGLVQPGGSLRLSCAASGFTLNSYGISWVRQAPGKGPEWVSVILSDGRRTFYGDPVKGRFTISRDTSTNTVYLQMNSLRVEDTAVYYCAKGRLAGTFDSWGQGTLVTVSS | ND / ND / ND | 1/9 (4.16) |
| 19 | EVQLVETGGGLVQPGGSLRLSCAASGFTLNSYGISWVRQAPGKGPEWVSVIYSDGMRTRYGDSVKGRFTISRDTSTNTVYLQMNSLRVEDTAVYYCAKGRAAGTYDSWGQGTLVTVSS | 1.48 / 1.67 / 1.90 | 2/9 (4.07) |

For reference, 3 entries of the list once more:

VH	replicates, log10 nM	empty controls
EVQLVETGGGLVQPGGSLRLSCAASGFHLDSYGISWVRQAPGKGPEWVSVIYSDGRRTFYGDSQKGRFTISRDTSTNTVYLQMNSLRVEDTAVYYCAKGRAAGTFDSWGQGTLVTVSS	4.25 / ND / ND	2/9 (4.11)
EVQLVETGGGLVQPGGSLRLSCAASGFTLNSYGISWVRQAPGKGPEWVSVIYSDGRRWFYGDSVKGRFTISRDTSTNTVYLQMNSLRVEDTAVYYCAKSRAAGTFDEWGQGTLVTVSS	5.94 / ND / ND	1/9 (2.90)
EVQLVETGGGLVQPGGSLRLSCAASGFTLNVYGISWVRQAPGKGPEWVSVIYSRGRRTYYGDSVKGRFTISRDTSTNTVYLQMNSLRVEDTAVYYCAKGRAAGTFDSWGQGTLVTVSS	ND / ND / ND	0/9